We go through three substances from article PMC10771525 (Communications Biology, 2024).

In general, EC50 refers to the concentration needed to bring the measured effect to its halfway point. A higher EC50 goes with weaker potency. The EC80 is the concentration needed for an effect of 80%. Low values mean an effect from little substance, high ones a need for much substance.

Common to all, as to format: cell-based, human
Holding throughout (details): reference agonist

The subject of one experiment is FSHR. As to the kind of experiment: GPCR panel (control), Arrestin, CHO-K1.
For another experiment, the system named is TSHR. As to the kind of experiment: GPCR panel (control), Arrestin, U2OS.
The test system of a further experiment is LHCGR. Nature of the experiment: GPCR panel (control), Arrestin, CHO-K1.

Turning to FSH, in the experiment on FSHR, a half-maximal effect (EC50) was put at 3.9 nM and the concentration for an effect of 80% (EC80) came out at 210 nM.

Human TSH: in the experiment with TSHR, the EC50 is 88 nM and the 80% effect concentration (EC80) amounted to 3500 nM.

As to Chorionic Gonadotropin (hCG), in the experiment on LHCGR, the EC50 is 6.8 nM and the “EC80” value worked out at 45 nM.
